# Test results from patent publication US7265147B2, “3,6-disubstituted azabicyclo [3.1.0]hexane derivatives useful as muscarinic receptor antagonists” (Ranbaxy Laboratories Limited, priority 2002, dated 2007).
# Sequences of proteins named here, by UniProt entry; tags and fusion partners are left off. A change or cut given only in a name is not applied to a line headed by its entry.
# UniProt P10980: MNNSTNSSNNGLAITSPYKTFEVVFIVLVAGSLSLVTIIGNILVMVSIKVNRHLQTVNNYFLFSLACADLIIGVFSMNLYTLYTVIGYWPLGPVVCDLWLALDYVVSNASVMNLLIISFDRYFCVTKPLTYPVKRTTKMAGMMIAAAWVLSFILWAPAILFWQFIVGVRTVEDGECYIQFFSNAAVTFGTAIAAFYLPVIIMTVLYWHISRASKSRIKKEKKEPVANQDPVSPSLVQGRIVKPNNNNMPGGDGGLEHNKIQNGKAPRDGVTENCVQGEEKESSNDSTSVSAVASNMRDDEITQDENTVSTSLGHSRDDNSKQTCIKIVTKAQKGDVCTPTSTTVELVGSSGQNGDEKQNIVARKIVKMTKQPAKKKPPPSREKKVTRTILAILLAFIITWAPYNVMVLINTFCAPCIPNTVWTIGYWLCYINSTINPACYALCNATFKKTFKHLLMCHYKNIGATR
# UniProt P08483: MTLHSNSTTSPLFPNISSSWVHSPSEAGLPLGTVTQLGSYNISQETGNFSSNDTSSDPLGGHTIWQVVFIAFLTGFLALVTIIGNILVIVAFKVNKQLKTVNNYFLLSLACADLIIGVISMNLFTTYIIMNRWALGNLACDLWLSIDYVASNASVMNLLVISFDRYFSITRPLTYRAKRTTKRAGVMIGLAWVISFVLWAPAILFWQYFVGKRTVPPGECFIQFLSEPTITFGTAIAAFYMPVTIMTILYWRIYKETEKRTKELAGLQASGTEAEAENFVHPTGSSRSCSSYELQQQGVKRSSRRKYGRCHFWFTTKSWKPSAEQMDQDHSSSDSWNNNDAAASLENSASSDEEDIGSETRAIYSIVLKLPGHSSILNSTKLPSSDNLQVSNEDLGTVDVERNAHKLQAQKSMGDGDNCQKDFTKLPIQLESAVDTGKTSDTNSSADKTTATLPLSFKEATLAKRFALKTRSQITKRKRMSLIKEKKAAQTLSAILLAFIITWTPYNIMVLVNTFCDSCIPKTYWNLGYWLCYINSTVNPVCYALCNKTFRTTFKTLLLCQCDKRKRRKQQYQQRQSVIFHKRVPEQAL
# How the values were obtained:
# [1] = target: M2 muscarinic receptor (Rattus norvegicus, UniProt P10980); test: Radioligand binding assay, [3H]-N-methylscopolamine, rat heart membranes; conditions: read-out: Receptor Binding Assay Ki (nM) M2, [3H]NMS binding
# [2] = target: M3 muscarinic receptor (Rattus norvegicus, UniProt P08483); conditions: for Ki: read-out: Receptor Binding Assay Ki (nM) M3, [3H]NMS binding, rat submandibular gland
Substance,Ki [1],Selectivity (M2/M3) ([2]; ratio of Ki M2 / Ki M3),Ki [2]
"4-[(1R,5S)-3-azabicyclo[3.1.0]hex-3-yl]-but-2-ynyl-2-hydroxy-bis-[4-fluorophenyl]acetate",40 nM,1.02,39 nM
"4-[(1R,5S)-3-azabicyclo[3.1.0]hex-3-yl]-but-2-ynyl-2-cyclopentyl-2-hydroxy(4-methyl phenyl)acetate",28 nM,,16 nM
